Assay in all cases: Kinase profiling in a biochemical assay panel (mobility shift assays and ELISA), %-inhibition at 1 μM; selectivity entropy
Background: An ELISA detects its analyte on a solid surface through an enzyme-linked reagent.

Amino acid sequences for entries named in this document (tags omitted). Residues count along the entry.
UniProt P36888, 27-993, stated change not applied: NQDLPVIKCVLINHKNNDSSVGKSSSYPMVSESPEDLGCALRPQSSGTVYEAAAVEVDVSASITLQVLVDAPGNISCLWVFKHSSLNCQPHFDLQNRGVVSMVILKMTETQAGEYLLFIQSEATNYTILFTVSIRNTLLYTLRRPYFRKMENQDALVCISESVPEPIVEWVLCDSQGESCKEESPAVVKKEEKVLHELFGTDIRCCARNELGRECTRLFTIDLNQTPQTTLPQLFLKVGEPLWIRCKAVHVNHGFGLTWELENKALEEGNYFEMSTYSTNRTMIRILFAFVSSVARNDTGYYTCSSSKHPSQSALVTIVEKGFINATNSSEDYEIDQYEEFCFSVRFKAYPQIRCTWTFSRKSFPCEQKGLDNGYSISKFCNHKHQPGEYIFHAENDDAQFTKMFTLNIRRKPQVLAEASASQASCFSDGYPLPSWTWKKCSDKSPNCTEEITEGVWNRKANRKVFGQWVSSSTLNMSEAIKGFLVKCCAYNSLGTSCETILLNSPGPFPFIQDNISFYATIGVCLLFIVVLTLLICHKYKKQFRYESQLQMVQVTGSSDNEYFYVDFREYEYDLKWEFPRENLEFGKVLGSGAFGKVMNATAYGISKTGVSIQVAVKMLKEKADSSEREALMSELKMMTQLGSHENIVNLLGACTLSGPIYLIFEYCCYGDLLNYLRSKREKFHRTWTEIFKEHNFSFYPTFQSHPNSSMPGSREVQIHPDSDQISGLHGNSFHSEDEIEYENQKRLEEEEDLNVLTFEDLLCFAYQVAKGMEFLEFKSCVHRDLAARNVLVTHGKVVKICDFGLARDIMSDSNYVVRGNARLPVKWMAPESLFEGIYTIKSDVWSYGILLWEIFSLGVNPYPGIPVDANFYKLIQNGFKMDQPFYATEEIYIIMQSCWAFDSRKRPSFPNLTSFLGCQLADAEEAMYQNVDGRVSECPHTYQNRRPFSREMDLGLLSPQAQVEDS
UniProt Q16512, whole entry, stated change not applied: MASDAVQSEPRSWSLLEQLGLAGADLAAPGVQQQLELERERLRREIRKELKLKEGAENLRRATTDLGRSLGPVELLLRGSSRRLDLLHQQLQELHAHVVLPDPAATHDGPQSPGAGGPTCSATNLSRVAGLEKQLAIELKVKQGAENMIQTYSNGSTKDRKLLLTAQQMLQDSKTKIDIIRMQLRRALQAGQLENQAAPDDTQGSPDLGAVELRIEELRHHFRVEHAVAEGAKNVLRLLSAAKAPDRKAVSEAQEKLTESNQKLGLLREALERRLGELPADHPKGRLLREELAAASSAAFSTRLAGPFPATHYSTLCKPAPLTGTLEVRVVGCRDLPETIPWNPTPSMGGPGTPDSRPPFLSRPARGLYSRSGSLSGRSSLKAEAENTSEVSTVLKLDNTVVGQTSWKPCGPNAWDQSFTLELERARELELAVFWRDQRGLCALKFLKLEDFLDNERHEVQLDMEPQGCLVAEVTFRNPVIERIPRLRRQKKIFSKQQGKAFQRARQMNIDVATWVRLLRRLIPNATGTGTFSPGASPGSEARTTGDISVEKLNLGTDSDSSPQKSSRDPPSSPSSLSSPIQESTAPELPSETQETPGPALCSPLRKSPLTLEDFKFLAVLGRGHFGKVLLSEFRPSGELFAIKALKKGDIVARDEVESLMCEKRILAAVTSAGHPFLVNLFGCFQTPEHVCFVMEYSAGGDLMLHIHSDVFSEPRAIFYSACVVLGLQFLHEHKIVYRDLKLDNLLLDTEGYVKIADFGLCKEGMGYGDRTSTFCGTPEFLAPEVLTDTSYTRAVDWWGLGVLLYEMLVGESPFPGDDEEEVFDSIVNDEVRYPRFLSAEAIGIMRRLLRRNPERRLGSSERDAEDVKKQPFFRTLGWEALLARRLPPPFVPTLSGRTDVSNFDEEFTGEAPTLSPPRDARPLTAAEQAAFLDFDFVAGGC
UniProt P08581, 25-1390, stated change not applied: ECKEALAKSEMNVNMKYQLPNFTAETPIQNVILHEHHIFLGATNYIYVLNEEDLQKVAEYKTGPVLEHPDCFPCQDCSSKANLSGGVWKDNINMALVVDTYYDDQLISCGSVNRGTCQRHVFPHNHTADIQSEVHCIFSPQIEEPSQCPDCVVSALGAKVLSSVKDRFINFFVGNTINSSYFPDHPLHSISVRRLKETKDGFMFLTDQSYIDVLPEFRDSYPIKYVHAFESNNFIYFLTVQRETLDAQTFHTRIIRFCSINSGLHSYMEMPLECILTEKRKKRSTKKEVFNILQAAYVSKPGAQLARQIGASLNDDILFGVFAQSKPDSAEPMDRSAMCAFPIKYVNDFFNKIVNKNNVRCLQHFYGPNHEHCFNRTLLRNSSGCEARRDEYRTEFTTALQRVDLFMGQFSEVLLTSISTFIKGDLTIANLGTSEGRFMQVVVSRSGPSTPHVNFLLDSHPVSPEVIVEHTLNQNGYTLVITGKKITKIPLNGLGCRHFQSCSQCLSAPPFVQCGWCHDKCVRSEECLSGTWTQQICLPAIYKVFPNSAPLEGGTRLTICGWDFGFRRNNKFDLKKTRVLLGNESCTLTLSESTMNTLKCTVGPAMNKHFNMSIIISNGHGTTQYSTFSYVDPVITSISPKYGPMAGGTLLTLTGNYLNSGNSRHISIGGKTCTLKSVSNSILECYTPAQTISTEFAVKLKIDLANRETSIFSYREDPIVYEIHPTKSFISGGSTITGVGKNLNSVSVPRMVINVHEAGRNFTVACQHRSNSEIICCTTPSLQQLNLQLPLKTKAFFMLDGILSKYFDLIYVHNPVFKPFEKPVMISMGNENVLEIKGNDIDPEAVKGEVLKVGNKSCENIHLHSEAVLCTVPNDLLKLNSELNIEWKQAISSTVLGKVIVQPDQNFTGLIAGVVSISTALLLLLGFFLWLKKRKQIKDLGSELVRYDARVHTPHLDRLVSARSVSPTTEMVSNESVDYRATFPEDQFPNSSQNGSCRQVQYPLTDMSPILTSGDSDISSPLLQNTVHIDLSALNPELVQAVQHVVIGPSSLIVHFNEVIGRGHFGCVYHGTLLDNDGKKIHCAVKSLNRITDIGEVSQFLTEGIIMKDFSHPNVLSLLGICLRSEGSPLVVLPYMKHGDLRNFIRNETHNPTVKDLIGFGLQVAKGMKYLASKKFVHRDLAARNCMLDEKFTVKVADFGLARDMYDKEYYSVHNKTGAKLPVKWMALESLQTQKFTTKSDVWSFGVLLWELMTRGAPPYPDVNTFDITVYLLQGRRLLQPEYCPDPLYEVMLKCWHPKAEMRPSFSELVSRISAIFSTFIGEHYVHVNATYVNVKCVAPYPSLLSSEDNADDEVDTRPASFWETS
UniProt Q9Y6M4, whole entry, stated change not applied: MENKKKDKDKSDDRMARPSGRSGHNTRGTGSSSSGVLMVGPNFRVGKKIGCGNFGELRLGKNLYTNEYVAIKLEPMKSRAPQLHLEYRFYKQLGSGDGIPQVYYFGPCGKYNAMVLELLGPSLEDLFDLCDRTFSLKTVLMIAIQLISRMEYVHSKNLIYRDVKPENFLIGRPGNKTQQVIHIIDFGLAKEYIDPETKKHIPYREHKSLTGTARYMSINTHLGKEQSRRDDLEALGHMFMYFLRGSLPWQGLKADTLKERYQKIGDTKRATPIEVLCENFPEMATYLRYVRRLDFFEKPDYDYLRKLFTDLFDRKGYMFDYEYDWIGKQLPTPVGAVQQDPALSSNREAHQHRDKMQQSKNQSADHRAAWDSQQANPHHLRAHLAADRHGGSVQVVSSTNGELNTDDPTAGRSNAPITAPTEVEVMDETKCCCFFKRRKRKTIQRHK
UniProt Q9Y243, whole entry, stated change not applied: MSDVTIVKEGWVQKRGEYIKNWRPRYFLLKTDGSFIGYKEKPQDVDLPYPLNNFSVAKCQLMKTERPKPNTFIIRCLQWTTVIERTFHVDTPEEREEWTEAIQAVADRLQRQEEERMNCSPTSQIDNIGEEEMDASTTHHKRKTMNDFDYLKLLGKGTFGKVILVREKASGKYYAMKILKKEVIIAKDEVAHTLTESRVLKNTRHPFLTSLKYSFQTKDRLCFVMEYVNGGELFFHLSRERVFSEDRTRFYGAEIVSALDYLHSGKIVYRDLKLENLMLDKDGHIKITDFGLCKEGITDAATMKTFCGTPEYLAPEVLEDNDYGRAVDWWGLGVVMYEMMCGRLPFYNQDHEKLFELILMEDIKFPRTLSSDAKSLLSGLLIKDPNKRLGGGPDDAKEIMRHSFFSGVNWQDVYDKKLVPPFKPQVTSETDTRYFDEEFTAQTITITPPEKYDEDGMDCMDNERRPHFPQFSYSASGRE
UniProt P22607, 23-806 K650M: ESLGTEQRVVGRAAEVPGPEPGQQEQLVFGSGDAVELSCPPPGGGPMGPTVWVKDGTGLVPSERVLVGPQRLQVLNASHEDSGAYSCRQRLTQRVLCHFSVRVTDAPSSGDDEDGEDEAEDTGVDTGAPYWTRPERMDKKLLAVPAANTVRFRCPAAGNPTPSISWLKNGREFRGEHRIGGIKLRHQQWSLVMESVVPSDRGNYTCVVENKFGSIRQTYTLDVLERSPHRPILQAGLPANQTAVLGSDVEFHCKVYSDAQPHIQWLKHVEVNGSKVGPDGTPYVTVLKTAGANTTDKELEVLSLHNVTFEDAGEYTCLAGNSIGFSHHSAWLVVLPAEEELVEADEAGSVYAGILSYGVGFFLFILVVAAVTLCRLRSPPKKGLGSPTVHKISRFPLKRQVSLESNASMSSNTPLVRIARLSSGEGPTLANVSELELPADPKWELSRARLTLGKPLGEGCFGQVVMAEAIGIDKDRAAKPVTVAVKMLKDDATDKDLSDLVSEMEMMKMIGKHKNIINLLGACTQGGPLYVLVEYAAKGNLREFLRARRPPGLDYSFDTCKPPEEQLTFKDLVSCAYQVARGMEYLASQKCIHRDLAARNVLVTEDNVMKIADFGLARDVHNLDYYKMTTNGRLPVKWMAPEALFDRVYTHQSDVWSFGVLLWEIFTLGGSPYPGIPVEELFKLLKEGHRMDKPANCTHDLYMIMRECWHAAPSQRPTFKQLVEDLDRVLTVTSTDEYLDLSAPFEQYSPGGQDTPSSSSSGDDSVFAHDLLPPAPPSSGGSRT
UniProt Q9UL54, whole entry, stated change not applied: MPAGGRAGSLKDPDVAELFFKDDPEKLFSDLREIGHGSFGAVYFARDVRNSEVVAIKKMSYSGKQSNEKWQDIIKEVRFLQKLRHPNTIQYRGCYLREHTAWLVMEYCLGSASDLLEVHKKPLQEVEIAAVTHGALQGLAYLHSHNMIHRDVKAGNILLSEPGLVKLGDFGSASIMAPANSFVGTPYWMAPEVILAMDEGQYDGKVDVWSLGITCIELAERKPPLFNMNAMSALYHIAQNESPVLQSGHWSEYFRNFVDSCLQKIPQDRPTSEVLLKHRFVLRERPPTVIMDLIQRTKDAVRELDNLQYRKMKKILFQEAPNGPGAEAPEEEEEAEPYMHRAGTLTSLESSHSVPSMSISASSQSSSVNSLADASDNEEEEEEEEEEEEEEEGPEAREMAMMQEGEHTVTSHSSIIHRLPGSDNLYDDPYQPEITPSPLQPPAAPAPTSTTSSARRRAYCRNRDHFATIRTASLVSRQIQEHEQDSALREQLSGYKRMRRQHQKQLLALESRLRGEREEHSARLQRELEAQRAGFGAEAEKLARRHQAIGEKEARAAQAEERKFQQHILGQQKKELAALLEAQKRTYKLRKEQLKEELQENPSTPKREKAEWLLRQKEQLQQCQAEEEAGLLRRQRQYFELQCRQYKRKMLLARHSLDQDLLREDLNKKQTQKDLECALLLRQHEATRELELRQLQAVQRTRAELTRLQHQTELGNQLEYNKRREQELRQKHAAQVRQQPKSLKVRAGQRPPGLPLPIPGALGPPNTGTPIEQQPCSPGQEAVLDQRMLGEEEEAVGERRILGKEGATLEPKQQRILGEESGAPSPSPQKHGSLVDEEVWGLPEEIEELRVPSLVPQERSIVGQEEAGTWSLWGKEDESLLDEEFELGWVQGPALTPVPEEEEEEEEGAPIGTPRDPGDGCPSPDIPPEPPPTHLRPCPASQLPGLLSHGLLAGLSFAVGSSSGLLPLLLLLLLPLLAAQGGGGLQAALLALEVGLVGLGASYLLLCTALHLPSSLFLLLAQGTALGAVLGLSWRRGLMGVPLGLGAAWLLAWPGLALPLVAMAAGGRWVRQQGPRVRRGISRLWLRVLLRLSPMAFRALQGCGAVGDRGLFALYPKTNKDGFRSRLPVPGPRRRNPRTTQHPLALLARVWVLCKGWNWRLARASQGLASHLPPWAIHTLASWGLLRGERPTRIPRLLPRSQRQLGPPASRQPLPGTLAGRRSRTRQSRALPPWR

Assay [1] concerns the target panel of more than 300 wild-type and mutant kinases (313 kinase panel) (Homo sapiens, UniProt O95819).
Assay [2] concerns the target panel of more than 300 wild-type and mutant kinases (313 kinase panel) (Homo sapiens, UniProt P54764).
Assay [3] addresses panel of more than 300 wild-type and mutant kinases (313 kinase panel) (Homo sapiens, UniProt P36888).
Assay [4] deals with panel of more than 300 wild-type and mutant kinases (313 kinase panel) (Homo sapiens, UniProt P07947).
In assay [5] the target is panel of more than 300 wild-type and mutant kinases (313 kinase panel) (Homo sapiens, UniProt Q16512).
The target of assay [6] is panel of more than 300 wild-type and mutant kinases (313 kinase panel) (Homo sapiens, UniProt P08581).
Assay [7] addresses panel of more than 300 wild-type and mutant kinases (313 kinase panel) (Homo sapiens, UniProt Q9Y6M4). Conditions: 1 µM.
In assay [8] the target is panel of more than 300 wild-type and mutant kinases (313 kinase panel) (Homo sapiens, UniProt P54762). As to conditions: 1 µM.
Assay [9] addresses panel of more than 300 wild-type and mutant kinases (313 kinase panel) (Homo sapiens, UniProt Q9Y243). As to conditions: 1 µM.
The target of assay [10] is panel of more than 300 wild-type and mutant kinases (313 kinase panel) (Homo sapiens, UniProt P49674). Conditions: 1 µM.
The target in assay [11] is panel of more than 300 wild-type and mutant kinases (313 kinase panel) (Homo sapiens, UniProt Q9UBS0).
Assay [12] deals with panel of more than 300 wild-type and mutant kinases (313 kinase panel) (Homo sapiens, UniProt Q16654). Conditions: 1 µM.
In assay [13] the target is panel of more than 300 wild-type and mutant kinases (313 kinase panel) (Homo sapiens, UniProt Q16566). As to conditions: 1 µM.
The target in assay [14] is panel of more than 300 wild-type and mutant kinases (313 kinase panel) (Homo sapiens, UniProt P22607, K650M). Conditions: 1 µM.
The target in assay [15] is panel of more than 300 wild-type and mutant kinases (313 kinase panel) (Homo sapiens, UniProt P51955). Conditions: 1 µM.
Assay [16] deals with panel of more than 300 wild-type and mutant kinases (313 kinase panel) (Homo sapiens, UniProt Q15119).
Assay [17] concerns the target panel of more than 300 wild-type and mutant kinases (313 kinase panel) (Homo sapiens, UniProt P54756). Conditions: 1 µM.
Assay [18] concerns the target panel of more than 300 wild-type and mutant kinases (313 kinase panel) (Homo sapiens, UniProt P30291). As to conditions: 1 µM.
Assay [19] deals with panel of more than 300 wild-type and mutant kinases (313 kinase panel) (Homo sapiens, UniProt P42684). Conditions: 1 µM.
Assay [20] addresses panel of more than 300 wild-type and mutant kinases (313 kinase panel) (Homo sapiens, UniProt P24723). As to conditions: 1 µM.
In assay [21] the target is panel of more than 300 wild-type and mutant kinases (313 kinase panel) (Homo sapiens, UniProt Q16620). As to conditions: 1 µM.
Assay [22] addresses panel of more than 300 wild-type and mutant kinases (313 kinase panel) (Homo sapiens, UniProt Q9UL54). As to conditions: 1 µM.
The target of assay [23] is panel of more than 300 wild-type and mutant kinases (313 kinase panel) (Homo sapiens, UniProt Q04759). Conditions: 1 µM.

Consider `CNC(=O)c1ccccc1Sc1ccc2c(/C=C/c3ccccn3)n[nH]c2c1` [axitinib], for which the “%-inhibition of HGK” value in assay [1] (kinase HGK, compound at 1 μM) came out at 75%. Also, the “%-inhibition of EPHA4” value in assay [2] (kinase EPHA4, compound at 1 μM) was -0.553%. Moreover, the “%-inhibition of FLT3” value in assay [3] (kinase FLT3, compound at 1 μM) was 72%. The “%-inhibition of YES” value in assay [4] (kinase YES, compound at 1 μM) amounted to 79%. In addition, in [5] (kinase PKN1, 1 μM), the “%-inhibition of PKN1” value came to 7%. Moreover, in assay [6] (kinase MET, compound at 1 μM), the “%-inhibition of MET” value is given as 36%.

In the case of `COc1cc2ncnc(Nc3ccc(F)c(Cl)c3)c2cc1OCCCN1CCOCC1` [gefitinib], the “%-inhibition, CK1γ3” value in [7] is given as -2.3%. For the same compound, the “%-inhibition of EPHB1” value in [8] came to 41%. In addition, the “%-inhibition, AKT3” value in assay [9] was 5.27%. The “%-inhibition, CK1ε” value in [10] is given as -6%. Besides, the “%-inhibition of p70S6Kβ” value in assay [11] (kinase p70S6Kβ, 1 μM) is reported as 9%. In addition, in assay [12], the “%-inhibition of PDHK4” value is reported as -2.83%. The “%-inhibition, CaMK4” value in assay [13] was -3.42%. Moreover, the “%-inhibition of FGFR3(K650M)” value in assay [14] is 37%. Also, the “%-inhibition of NEK2” value in [15] is reported as 3%. The “%-inhibition of PDHK2” value in [16] (kinase PDHK2, 1 μM) is -2%. Besides, the “%-inhibition of EPHA5” value in assay [17] worked out at 59%. For the same compound, the “%-inhibition of WEE1” value in assay [18] came to 21%. Moreover, the “%-inhibition, ARG” value in assay [19] turned out to be 39%. Moreover, the “%-inhibition of PKCη” value in assay [20] came to 5.46%. In addition, the “%-inhibition of TRKB” value in assay [21] is reported as -4.75%. In addition, the “%-inhibition of TAOK2” value in assay [22] is given as -7%. In addition, the “%-inhibition of PKCθ” value in assay [23] is 5.66%.

As to `C[C@@H]1CCN(C(=O)CC#N)C[C@@H]1N(C)c1ncnc2[nH]ccc12` [tofacitinib], the “%-inhibition, CK1γ3” value in assay [7] was found to be 1.75%. In assay [1] (1 µM), the “%-inhibition of HGK” value is -2.79%. Moreover, in assay [8], the “%-inhibition of EPHB1” value turned out to be 0.465%. For the same compound, the “%-inhibition, AKT3” value in [9] is 2.14%. The “%-inhibition, CK1ε” value in assay [10] amounted to 3.69%. In addition, the “%-inhibition of p70S6Kβ” value in assay [11] (1 µM) is given as 0.235%. Also, in assay [2] (1 µM), the “%-inhibition of EPHA4” value is -2%. Also, in assay [3] (1 µM), the “%-inhibition of FLT3” value stood at 9%. Moreover, the “%-inhibition of PDHK4” value in assay [12] is reported as -3.33%. For the same compound, the “%-inhibition, CaMK4” value in [13] is given as -3.55%. Further, the “%-inhibition of FGFR3(K650M)” value in assay [14] came to 12%. Moreover, the “%-inhibition of NEK2” value in assay [15] is reported as -2.43%. In addition, the “%-inhibition of PDHK2” value in assay [16] (1 µM) is given as -2.2%. In addition, the “%-inhibition of EPHA5” value in assay [17] was 0.175%. Further, the “%-inhibition of YES” value in assay [4] (1 µM) is 12%. The “%-inhibition of PKN1” value in assay [5] (1 µM) was 91%. Moreover, the “%-inhibition of WEE1” value in [18] is listed as -0.0711%. Besides, the “%-inhibition of MET” value in [6] (1 µM) was -1.22%. The “%-inhibition, ARG” value in assay [19] is 1.17%. Also, the “%-inhibition of PKCη” value in assay [20] is given as -12%. Further, the “%-inhibition of TRKB” value in assay [21] turned out to be 12%. Also, in assay [22], the “%-inhibition of TAOK2” value is 1.78%. Further, in [23], the “%-inhibition of PKCθ” value is -1.47%.

Source of the values: paper PMC3961306, “Comparison of the Cancer Gene Targeting and Biochemical Selectivities of All Targeted Kinase Inhibitors Approved for Clinical Use” (PLoS ONE, 2014).
